Consider one molecule from PMC13266999, “Designing Antibiotics with Inherent Resistance to Efflux as a Strategy to Revive Discovery against Multidrug-Resistant Pathogens” (Journal of Medicinal Chemistry, 2026).

A short description of this series: Pharmacokinetics. The settings on record: male, ICR (CD-1), mouse, plasma, po, 20 mg/kg.

The term bioavailability denotes dose-corrected exposure relative to a reference, in per cent. Lower therefore signals poor availability. `C[C@H]1COc2c(N3CCN(C)CC3)c(F)cc3c(=O)c(C(=O)O)cn1c23` [Levofloxacin, (S)-9-Fluoro-3-methyl-10-(4-methylpiperazin-1-yl)-7-oxo-2,3-dihydro-7H-[1,4]oxazino[2,3,4-ij]quinoline-6-carboxylic acid, reference compound] registered a bioavailability of 40.7%.
